Reference: article PMC10615923
Values joined by “and” are separate entries in the source; they are usually repeats but may differ in a detail not shown here. Equal values may be shown once. Some compounds may have been tested in ways that are not shown here.

The chains behind the UniProt entries cited, without tags or fusion partners. Residues count along the entry.
UniProt P05177, whole entry: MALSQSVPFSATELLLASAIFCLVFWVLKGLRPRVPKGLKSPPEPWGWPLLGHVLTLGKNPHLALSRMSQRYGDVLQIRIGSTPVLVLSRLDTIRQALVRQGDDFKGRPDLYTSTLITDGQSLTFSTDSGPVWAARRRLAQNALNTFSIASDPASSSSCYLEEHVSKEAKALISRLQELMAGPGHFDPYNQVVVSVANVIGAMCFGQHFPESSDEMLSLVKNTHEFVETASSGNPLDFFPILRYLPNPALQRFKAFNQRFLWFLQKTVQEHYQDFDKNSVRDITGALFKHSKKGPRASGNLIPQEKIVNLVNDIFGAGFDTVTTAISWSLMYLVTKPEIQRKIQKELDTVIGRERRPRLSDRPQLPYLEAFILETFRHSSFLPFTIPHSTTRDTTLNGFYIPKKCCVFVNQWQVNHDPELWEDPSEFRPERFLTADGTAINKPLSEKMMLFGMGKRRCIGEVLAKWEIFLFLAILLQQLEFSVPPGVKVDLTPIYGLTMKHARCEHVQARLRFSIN
UniProt P05181, whole entry: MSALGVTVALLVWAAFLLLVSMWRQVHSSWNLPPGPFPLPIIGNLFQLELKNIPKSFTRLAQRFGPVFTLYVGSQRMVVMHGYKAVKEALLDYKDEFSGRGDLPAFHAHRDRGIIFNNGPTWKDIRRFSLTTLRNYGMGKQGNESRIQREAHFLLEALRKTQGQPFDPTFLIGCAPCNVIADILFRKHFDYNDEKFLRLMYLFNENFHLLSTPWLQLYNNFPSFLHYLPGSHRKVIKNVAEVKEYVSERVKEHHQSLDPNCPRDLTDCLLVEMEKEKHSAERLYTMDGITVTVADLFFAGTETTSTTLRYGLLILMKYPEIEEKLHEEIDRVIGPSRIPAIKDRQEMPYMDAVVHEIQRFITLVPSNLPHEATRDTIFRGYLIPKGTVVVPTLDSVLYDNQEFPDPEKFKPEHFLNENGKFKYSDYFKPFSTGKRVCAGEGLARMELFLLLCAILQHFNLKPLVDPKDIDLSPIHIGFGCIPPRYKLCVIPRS
UniProt P20813, whole entry: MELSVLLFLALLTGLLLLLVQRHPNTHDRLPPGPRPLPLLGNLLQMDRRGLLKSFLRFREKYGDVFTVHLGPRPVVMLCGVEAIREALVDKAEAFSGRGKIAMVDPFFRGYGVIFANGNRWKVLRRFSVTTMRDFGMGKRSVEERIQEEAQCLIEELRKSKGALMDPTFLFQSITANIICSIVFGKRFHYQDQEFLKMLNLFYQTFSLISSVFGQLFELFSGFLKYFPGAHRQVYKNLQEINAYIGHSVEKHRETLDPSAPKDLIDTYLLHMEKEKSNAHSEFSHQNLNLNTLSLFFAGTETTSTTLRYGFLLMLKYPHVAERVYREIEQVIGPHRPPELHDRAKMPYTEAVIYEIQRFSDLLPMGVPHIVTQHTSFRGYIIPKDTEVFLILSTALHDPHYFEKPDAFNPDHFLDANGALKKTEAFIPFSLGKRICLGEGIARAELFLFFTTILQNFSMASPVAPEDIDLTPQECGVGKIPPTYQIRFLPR
UniProt P08684, whole entry: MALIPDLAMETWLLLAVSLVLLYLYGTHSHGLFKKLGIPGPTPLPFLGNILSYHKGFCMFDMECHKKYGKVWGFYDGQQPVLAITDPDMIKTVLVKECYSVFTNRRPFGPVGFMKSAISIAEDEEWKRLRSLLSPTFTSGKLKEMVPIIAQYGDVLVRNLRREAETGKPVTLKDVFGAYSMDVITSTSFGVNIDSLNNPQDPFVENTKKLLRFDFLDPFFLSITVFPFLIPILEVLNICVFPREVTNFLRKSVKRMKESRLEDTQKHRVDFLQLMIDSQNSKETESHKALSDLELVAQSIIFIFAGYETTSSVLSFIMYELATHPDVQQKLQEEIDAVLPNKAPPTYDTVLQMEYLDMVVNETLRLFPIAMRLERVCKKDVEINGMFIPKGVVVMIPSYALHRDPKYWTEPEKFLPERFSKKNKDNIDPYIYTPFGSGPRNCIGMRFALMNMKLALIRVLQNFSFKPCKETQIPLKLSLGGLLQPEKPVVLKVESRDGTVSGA
UniProt P10635, whole entry: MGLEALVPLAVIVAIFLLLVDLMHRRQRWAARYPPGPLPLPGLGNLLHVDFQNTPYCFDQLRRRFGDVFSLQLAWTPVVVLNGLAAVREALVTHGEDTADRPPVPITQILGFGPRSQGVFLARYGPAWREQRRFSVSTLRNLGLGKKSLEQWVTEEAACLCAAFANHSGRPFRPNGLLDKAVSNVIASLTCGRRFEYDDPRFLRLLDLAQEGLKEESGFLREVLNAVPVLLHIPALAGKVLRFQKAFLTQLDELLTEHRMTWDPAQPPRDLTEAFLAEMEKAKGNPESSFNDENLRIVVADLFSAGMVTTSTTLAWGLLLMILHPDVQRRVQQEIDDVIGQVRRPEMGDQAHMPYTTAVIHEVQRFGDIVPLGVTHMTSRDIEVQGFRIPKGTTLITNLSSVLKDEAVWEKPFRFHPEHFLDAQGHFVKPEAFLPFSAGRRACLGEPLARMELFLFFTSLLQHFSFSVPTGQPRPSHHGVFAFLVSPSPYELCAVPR
UniProt P33261, whole entry: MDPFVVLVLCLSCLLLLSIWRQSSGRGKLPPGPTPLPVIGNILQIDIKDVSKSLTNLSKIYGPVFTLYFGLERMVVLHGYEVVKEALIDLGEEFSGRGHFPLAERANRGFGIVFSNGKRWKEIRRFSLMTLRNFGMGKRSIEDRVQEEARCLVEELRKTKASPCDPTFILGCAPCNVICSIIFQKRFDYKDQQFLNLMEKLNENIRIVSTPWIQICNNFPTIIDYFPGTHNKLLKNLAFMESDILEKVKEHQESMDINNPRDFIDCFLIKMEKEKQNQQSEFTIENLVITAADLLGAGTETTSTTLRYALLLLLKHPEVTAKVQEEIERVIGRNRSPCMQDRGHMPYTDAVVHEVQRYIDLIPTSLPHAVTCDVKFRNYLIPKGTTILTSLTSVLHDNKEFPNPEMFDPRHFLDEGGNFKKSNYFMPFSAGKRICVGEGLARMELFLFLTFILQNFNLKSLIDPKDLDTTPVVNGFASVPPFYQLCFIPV
UniProt P11712, whole entry: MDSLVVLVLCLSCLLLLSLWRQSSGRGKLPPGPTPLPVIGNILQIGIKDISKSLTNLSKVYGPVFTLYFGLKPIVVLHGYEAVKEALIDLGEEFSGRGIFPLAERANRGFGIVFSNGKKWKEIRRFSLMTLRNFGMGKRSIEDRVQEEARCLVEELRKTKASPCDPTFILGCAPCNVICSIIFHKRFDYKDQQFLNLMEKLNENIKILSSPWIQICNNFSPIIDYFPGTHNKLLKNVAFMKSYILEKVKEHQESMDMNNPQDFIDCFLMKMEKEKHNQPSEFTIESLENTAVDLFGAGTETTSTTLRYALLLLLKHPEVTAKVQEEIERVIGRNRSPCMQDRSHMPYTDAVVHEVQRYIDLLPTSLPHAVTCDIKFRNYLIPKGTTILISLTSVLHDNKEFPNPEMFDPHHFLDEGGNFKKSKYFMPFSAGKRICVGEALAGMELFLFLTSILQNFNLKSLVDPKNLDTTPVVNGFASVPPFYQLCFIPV
UniProt P31513, whole entry: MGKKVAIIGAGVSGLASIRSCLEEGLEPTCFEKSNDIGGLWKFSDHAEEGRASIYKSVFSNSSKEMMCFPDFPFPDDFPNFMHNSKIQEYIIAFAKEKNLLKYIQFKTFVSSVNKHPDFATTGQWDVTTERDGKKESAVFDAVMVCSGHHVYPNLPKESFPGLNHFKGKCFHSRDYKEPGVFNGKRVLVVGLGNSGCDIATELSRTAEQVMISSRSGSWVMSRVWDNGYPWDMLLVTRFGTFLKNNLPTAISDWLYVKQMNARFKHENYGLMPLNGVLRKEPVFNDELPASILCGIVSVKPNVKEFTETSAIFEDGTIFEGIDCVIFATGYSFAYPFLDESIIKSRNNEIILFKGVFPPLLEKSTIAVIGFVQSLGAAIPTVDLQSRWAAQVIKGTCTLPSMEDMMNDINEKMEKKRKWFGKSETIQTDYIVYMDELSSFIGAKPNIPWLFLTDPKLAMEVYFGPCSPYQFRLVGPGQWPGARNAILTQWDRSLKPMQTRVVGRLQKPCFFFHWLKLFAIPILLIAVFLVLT
UniProt P19224, 27-532 limits assumed: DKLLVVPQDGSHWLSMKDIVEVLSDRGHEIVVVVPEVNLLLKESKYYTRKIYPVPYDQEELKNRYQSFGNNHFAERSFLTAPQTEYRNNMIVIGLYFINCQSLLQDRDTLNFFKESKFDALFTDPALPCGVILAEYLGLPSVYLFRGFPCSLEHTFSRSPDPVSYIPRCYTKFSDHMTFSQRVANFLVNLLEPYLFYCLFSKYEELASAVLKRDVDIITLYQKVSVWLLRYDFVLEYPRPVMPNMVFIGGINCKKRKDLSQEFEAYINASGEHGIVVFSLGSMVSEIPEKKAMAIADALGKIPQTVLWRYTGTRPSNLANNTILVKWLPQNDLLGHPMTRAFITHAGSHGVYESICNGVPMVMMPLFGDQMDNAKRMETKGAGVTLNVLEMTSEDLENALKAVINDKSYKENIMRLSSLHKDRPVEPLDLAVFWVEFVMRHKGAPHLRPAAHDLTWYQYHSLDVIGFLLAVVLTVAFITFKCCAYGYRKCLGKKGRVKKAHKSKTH
UniProt P16662, 24-529 limits assumed: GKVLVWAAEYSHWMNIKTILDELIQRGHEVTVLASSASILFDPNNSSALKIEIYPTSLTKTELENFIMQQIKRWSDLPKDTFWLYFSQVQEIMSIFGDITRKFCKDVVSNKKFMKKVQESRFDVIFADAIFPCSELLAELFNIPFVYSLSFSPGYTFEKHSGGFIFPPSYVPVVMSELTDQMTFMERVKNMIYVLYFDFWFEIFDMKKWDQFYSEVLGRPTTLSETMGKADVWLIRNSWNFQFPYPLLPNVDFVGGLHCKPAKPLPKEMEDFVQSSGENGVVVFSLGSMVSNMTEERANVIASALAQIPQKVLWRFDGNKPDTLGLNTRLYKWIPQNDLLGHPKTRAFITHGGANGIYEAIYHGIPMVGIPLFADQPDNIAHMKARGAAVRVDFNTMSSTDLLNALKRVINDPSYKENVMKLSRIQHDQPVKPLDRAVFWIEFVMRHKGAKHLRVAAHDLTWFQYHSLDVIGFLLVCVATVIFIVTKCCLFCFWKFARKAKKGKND
UniProt P22310, 29-534 limits assumed: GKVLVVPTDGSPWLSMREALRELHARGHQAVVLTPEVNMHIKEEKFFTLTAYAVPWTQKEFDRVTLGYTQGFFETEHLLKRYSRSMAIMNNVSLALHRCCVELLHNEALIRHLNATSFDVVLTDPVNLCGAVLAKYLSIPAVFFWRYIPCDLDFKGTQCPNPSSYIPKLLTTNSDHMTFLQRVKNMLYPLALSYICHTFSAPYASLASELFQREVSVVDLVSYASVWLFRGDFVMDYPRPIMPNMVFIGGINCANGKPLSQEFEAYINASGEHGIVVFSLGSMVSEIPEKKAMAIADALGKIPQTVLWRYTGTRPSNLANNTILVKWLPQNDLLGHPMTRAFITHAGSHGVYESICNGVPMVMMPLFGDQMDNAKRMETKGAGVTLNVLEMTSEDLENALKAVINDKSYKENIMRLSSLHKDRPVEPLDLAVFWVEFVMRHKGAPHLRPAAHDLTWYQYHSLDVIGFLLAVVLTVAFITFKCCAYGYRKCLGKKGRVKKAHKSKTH
UniProt P49326, whole entry: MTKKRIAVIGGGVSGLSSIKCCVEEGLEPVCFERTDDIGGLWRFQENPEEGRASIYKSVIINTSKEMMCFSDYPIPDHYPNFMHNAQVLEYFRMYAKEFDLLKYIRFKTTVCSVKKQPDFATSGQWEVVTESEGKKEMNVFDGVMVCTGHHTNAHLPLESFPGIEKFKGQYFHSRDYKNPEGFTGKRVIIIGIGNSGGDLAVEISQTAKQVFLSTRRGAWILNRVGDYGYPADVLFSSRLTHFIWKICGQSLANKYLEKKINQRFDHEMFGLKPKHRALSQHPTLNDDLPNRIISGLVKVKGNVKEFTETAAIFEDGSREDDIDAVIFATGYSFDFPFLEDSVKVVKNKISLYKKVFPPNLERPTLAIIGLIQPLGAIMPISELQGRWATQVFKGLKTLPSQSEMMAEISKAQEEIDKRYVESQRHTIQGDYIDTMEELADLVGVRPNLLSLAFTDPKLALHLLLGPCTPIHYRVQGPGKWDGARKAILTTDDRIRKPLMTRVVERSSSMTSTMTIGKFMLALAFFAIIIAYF
UniProt P35503, 29-534 limits assumed: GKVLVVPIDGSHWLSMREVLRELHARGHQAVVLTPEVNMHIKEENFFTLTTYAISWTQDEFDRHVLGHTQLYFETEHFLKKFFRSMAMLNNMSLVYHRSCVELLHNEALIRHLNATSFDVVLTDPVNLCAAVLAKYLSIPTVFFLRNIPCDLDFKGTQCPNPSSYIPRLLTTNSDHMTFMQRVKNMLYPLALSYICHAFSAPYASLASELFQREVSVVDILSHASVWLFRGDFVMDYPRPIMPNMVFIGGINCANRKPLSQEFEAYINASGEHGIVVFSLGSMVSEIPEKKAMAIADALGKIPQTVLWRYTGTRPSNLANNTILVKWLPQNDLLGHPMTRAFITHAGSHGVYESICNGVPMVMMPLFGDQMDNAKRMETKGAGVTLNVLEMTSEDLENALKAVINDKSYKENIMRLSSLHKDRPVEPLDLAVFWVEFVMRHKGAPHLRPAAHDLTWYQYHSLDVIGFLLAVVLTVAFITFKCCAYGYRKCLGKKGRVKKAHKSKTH

Experiments:
[1] = tested on: dog liver microsomes (DLM); assay: Metabolite identification, TATP incubation in dog liver microsomes
[2] = tested on: rat liver microsomes (RLM); assay: Metabolite identification, TATP incubation in rat liver microsomes
CYP1A2 = CYP1A2 (Homo sapiens, UniProt P05177); assay: Incubation with recombinant CYP1A2 bactosomes; conditions: 10 min
[3] = tested on: glutathione S-transferase (GST); assay: Glutathione conjugation, TATP in HLM with GSH; conditions: HLM with 5 mM GSH
[4] = at 20 ℃; cited from earlier work
CYP2E1 = CYP2E1 (Homo sapiens, UniProt P05181); assay: Incubation with recombinant CYP2E1 bactosomes; conditions: 10 min
CYP2B6 [5] = biological target: T1, CYP2B6 (Homo sapiens, UniProt P20813); assay: Bupropion hydroxylation (CYP2B6 probe) in HLM with chemical inhibitors or heat; conditions: inhibitor preincubated in HLM for 30 min (1-ABT 1 mM, MMI 500 µM, TIC 100 µM); substrate bupropion 100 µM; no inhibitor = 100%
CYP3A4 = CYP3A4 (Homo sapiens, UniProt P08684); assay: Incubation with recombinant CYP3A4 bactosomes; conditions: 10 min
[6] = Recombinant CYP study, E. coli control (rCYP control); conditions: 10 min
UGT in HLM = assay: Glucuronidation, TATP in HLM with NADPH and UDPGA; conditions: NADPH, 5.5 mM UDPGA, alamethicin
[7] = tested on: human lung microsomes (HLungM); assay: Rate of TATP hydroxylation in human lung microsomes; conditions: for Rate of TATP-OH formation: 100 µM TATP
[8] = Urine analysis of laboratory workers exposed to TATP vapor; conditions: depending on the exposure level
CYP2D6 = CYP2D6 (Homo sapiens, UniProt P10635); assay: Incubation with recombinant CYP2D6 bactosomes; conditions: 10 min
canine microsomes = conditions: cited from earlier work
human liver microsomes = assay: Rate of TATP hydroxylation in human liver microsomes; conditions: 100 µM TATP, 1 mg/mL liver microsomes, up to 10 min
HLM [9] = assay: Recombinant CYP/FMO study, HLM positive control incubation; conditions: 10 min
[10] = tested on: human liver microsomes (HLM); assay: Metabolite identification, TATP incubation in human liver microsomes with NADPH; conditions: HLM 1 mg/mL, 10 µg/mL TATP
CYP2B6 [11] = biological target: T1, CYP2B6; assay: Michaelis-Menten kinetics of TATP hydroxylation by rCYP2B6 and clearance scale-up
CYP2B6 [12] = biological target: T1, CYP2B6; assay: Incubation with recombinant CYP2B6 bactosomes
CYP2C19 = CYP2C19 (Homo sapiens, UniProt P33261); assay: Incubation with recombinant CYP2C19 bactosomes; conditions: 10 min
[13] = Recombinant FMO study, insect cell control (rFMO control); conditions: 10 min
CYP2C9 = CYP2C9 (Homo sapiens, UniProt P11712); assay: Incubation with recombinant CYP2C9 bactosomes; conditions: 10 min
FMO3 = FMO3 (Homo sapiens, UniProt P31513); assay: Incubation with recombinant FMO3 supersomes; conditions: rFMO3, 10 µg/mL TATP-OH, 10 min
FMO1 = FMO1 (Homo sapiens, UniProt Q01740); assay: Incubation with recombinant FMO1 supersomes; conditions: rFMO1, 10 µg/mL TATP-OH, 10 min
UGT1A1 = UGT1A1 (Homo sapiens, UniProt P22309); assay: TATP-OH glucuronidation by recombinant UGT1A1; conditions: rUGT1A1 500 µg protein/mL, 10 µg/mL TATP-OH, 2 h
HLM [14] = assay: TATP hydroxylation (TATP-OH formation) in HLM with chemical inhibitors or heat; conditions: HLM preheated for 5 min at 45 ℃; 37 ℃ = 100%
UGT1A6 = UGT1A6 (Homo sapiens, UniProt P19224); assay: TATP-OH glucuronidation by recombinant UGT1A6; conditions: rUGT1A6 500 µg protein/mL, 10 µg/mL TATP-OH, 2 h
UGT2B7 = UGT2B7 (Homo sapiens, UniProt P16662); assay: TATP-OH glucuronidation by recombinant UGT2B7; conditions: rUGT2B7 500 µg protein/mL, 10 µg/mL TATP-OH, 2 h
UGT1A9 = UGT1A9 (Homo sapiens, UniProt O60656); assay: TATP-OH glucuronidation by recombinant UGT1A9; conditions: rUGT1A9 500 µg protein/mL, 10 µg/mL TATP-OH, 2 h
UGT1A4 = UGT1A4 (Homo sapiens, UniProt P22310); assay: TATP-OH glucuronidation by recombinant UGT1A4; conditions: rUGT1A4 500 µg protein/mL, 10 µg/mL TATP-OH, 2 h
FMO5 = FMO5 (Homo sapiens, UniProt P49326); assay: Incubation with recombinant FMO5 supersomes; conditions: rFMO5, 10 µg/mL TATP-OH, 10 min
UGT1A3 = UGT1A3 (Homo sapiens, UniProt P35503); assay: TATP-OH glucuronidation by recombinant UGT1A3; conditions: rUGT1A3 500 µg protein/mL, 10 µg/mL TATP-OH, 2 h
HLM [15] = assay: TATP-OH glucuronidation, HLM positive control; conditions: HLM 1 mg protein/mL, 10 µg/mL TATP-OH, 2 h
[16] = TATP-OH glucuronidation, insect cell control (rUGT control); conditions: 10 µg/mL TATP-OH, 2 h
HLM [17] = assay: TATP-OH substrate depletion in HLM; conditions: 1 µM TATP-OH, 1 mg/mL HLM

## CC1(C)OOC(C)(C)OOC(C)(C)OO1
[1]
  Metabolite formed from TATP: TATP-OH
[2]
  Metabolite formed from TATP: TATP-OH
CYP1A2; rCYP1A2 100 pmol CYP/mL, 10 µg/mL TATP
  [TATP-OH] formed from TATP: not observed
[3]
  Glutathione metabolite conjugates: no detectable glutathione metabolite conjugates
[4]
  Partial pressure: 4–7 Pa
CYP2E1; rCYP2E1 100 pmol CYP/mL, 10 µg/mL TATP
  [TATP-OH] formed from TATP: not observed
CYP2B6 [5]
  BUP-OH formation in 15 min, percent found: 62% and 62 ± 2%
CYP3A4; rCYP3A4 100 pmol CYP/mL, 10 µg/mL TATP
  [TATP-OH] formed from TATP: not observed
[6]; 10 µg/mL TATP
  [TATP-OH] formed from TATP: not observed
UGT in HLM
  Metabolite observed when incubated with UDPGA: TATP-O-glucuronide
[7]; 1 mg/mL lung microsomes lot1410246
  Rate of TATP-OH formation: < LOQ
[7]; 1 mg/mL lung microsomes lot1710142
  Rate of TATP-OH formation: < LOQ
[7]; compared with liver microsomes
  TATP hydroxylation in the lungs: negligible
[8]
  TATP to TATP-O-glucuronide in vivo clearance time: within about a day
CYP2D6; rCYP2D6 100 pmol CYP/mL, 10 µg/mL TATP
  [TATP-OH] formed from TATP: not observed
Canine microsomes
  Clearance of TATP in dogs: 0.36 mL/min/mg protein
Human liver microsomes
  Rate of TATP-OH formation: 0.425 ± 0.06 nmol/min/mg
HLM [9]; HLM 200 pmol CYP/mL, 10 µg/mL TATP
  [TATP-OH] formed from TATP: 1.47 ± 0.07 µM and 1.5 ± 0.1 µM
[10]
  Metabolite formed from TATP: TATP-OH
CYP2B6 [11]
  Clearance compared to common drugs: moderate
CYP2B6 [11]; 0.088 nmol CYP2B6/mg protein, 45 mg protein/g liver, 20 g liver/kg
  Scale-up Clint per kilogram body weight: 485 mL/min/kg
CYP2B6 [11]; 50 nM rCYP2B6, 0.1 to 20 µM TATP, Michaelis-Menten
  Vmax of TATP hydroxylation by CYP2B6: 8.7 nmol/min/nmol CYP2B6
CYP2B6 [11]; human, per mg microsomal protein
  In vitro clearance: 0.54 mL/min/mg protein
CYP2B6 [11]; read-out: Km of TATP hydroxylation by CYP2B6, 50 nM rCYP2B6, 0.1 to 20 µM TATP, Michaelis-Menten
  Km: 1.4 µM
CYP2B6 [11]; well-stirred model, Q = 21 mL/min/kg, no protein binding
  In vivo intrinsic clearance (Cl), hepatic extrapolation: 20 mL/min/kg
CYP2B6 [12]; rCYP2B6 100 pmol CYP/mL, 10 µg/mL TATP, 10 min
  [TATP-OH] formed from TATP: 5.59 ± 0.3 µM and 5.6 ± 0.3 µM
CYP2C19; rCYP2C19 100 pmol CYP/mL, 10 µg/mL TATP
  [TATP-OH] formed from TATP: not observed
[13]; 10 µg/mL TATP
  [TATP-OH] formed from TATP: not observed
CYP2C9; rCYP2C9 100 pmol CYP/mL, 10 µg/mL TATP
  [TATP-OH] formed from TATP: not observed

## CC1(C)OOC(C)(C)OOC(C)(CO)OO1
CYP1A2; rCYP1A2, 10 µg/mL TATP-OH
  Percent TATP-OH remaining: 77 ± 2%
FMO3
  Percent TATP-OH remaining: 78 ± 6%
FMO1
  Percent TATP-OH remaining: 78 ± 12%
UGT1A1
  TATP-O-glucuronide formation, TATP-glucuronide/IS area count: not observed
HLM [14]
  TATP-OH formation in 15 min, percent found: 69 ± 4%
CYP2E1; rCYP2E1, 10 µg/mL TATP-OH
  Percent TATP-OH remaining: 73 ± 5%
CYP3A4; rCYP3A4, 10 µg/mL TATP-OH
  Percent TATP-OH remaining: 78 ± 6%
UGT1A6
  TATP-O-glucuronide formation, TATP-glucuronide/IS area count: not observed
[6]; 10 µg/mL TATP-OH
  Percent TATP-OH remaining: 76 ± 4%
UGT2B7
  TATP-O-glucuronide formation, TATP-glucuronide/IS area count: 0.05 ± 0.03 area count relative to IS
UGT1A9
  TATP-O-glucuronide formation, TATP-glucuronide/IS area count: not observed
UGT1A4
  TATP-O-glucuronide formation, TATP-glucuronide/IS area count: not observed
FMO5
  Percent TATP-OH remaining: 72 ± 7%
CYP2D6; rCYP2D6, 10 µg/mL TATP-OH
  Percent TATP-OH remaining: 76 ± 5%
UGT1A3
  TATP-O-glucuronide formation, TATP-glucuronide/IS area count: not observed
HLM [15]
  TATP-O-glucuronide formation, TATP-glucuronide/IS area count: 0.26 ± 0.02 area count relative to IS
[16]
  TATP-O-glucuronide formation, TATP-glucuronide/IS area count: not observed
HLM [9]; HLM, 10 µg/mL TATP-OH
  Percent TATP-OH remaining: 69 ± 5%
HLM [17]
  In vitro intrinsic clearance (Clint) from half-life: 42 µL/min/mg
HLM [17]; NADPH, up to 60 min
  Half-life (t1/2) by substrate depletion: 16 min
CYP2B6 [12]; rCYP2B6, 10 µg/mL TATP-OH, 10 min
  Percent TATP-OH remaining: 60 ± 3%
CYP2B6 [12]; rCYP2B6, 10 min
  TATP-OH depletion: 40%
CYP2C19; rCYP2C19, 10 µg/mL TATP-OH
  Percent TATP-OH remaining: 76 ± 5%
[13]; 10 µg/mL TATP-OH
  Percent TATP-OH remaining: 69 ± 3%
CYP2C9; rCYP2C9, 10 µg/mL TATP-OH
  Percent TATP-OH remaining: 71 ± 8%
